# Test results taken from ChEMBL document CHEMBL3046773 (Med Chem Res, 2013).
# Sequences of proteins named here, by UniProt entry; tags and fusion partners are left off.
# UniProt O35505, whole entry, looked up: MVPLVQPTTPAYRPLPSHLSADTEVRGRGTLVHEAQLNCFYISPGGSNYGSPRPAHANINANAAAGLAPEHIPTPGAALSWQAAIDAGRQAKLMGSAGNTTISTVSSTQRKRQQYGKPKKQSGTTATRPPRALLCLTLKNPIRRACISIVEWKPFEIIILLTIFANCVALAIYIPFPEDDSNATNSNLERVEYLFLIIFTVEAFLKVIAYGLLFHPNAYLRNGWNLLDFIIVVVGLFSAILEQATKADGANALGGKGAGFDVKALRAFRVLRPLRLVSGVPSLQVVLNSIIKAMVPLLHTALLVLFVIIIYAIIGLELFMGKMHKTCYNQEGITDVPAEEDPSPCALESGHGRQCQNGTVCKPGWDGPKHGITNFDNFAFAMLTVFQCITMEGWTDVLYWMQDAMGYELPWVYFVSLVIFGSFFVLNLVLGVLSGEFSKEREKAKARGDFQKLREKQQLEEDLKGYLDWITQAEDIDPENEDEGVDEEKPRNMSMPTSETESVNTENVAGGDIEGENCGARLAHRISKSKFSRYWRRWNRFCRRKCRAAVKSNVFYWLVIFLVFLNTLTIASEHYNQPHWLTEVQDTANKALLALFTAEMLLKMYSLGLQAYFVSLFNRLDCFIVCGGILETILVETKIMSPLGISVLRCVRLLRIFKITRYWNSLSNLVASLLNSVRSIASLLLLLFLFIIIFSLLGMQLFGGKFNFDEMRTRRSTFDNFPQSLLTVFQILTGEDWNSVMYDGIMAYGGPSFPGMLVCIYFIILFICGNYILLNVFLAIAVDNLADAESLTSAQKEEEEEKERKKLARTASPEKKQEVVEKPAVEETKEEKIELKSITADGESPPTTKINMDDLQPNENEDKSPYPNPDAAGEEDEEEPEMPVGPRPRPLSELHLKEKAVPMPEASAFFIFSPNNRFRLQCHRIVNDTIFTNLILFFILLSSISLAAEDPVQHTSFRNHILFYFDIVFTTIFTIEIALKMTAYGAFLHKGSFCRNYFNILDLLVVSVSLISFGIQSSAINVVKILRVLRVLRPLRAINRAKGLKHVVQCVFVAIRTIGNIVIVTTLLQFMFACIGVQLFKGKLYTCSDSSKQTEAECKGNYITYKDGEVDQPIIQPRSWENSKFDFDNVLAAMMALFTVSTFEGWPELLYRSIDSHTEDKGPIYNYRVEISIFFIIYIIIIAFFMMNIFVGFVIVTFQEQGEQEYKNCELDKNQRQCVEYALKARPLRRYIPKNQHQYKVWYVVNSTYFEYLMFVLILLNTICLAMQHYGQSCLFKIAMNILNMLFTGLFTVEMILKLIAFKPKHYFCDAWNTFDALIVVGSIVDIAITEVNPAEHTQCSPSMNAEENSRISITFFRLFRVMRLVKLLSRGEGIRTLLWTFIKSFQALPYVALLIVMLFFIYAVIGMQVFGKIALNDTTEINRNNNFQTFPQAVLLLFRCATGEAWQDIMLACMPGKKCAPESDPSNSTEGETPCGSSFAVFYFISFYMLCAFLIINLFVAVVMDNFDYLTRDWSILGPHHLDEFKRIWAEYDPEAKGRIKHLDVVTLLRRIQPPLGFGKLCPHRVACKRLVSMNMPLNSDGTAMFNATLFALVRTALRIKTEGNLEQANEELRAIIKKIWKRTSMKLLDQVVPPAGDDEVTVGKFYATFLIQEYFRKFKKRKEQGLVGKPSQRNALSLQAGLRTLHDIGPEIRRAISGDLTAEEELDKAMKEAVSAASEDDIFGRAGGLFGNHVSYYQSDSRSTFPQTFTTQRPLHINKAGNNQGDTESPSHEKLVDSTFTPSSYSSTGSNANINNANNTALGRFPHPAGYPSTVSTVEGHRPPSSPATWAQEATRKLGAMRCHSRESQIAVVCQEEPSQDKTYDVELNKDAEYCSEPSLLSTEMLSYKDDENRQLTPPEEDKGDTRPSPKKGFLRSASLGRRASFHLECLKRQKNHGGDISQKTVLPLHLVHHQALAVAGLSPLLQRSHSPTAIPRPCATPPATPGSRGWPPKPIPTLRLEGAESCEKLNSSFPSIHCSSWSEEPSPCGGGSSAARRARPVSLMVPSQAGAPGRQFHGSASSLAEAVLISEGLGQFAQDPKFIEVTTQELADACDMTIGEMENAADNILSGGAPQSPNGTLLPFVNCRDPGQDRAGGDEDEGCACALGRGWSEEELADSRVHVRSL
# Target: Voltage-dependent L-type calcium channel subunit alpha-1C (Cavia porcellus, UniProt O35505)
# Experiment: Antagonist activity at calcium channel in Cavia porcellus (guinea pig) ileum assessed as inhibition KCl-induced muscle contraction
row,Compound,inhibition (INH)
1,CCCC(C)COC1Sc2ccccc2C(O)C1Cl (centres undefined),Dose-dependent effect
2,CCOC1Sc2ccccc2C(O)C1Cl (centres undefined),Dose-dependent effect
3,CC(C)OC1Sc2ccccc2C(O)C1Cl (centres undefined),Dose-dependent effect
4,CCCCOC1Sc2ccccc2C(O)C1Cl (centres undefined),Dose-dependent effect
